Measured values reported in patent publication US7435837B2, “Dihydrobenzofuranyl alkanamine derivatives and methods for using same” (Wyeth, priority 2003, dated 2008).

Amino acid sequences for entries named in this document (tags omitted). Residues count along the entry.
UniProt P28335, 33-458: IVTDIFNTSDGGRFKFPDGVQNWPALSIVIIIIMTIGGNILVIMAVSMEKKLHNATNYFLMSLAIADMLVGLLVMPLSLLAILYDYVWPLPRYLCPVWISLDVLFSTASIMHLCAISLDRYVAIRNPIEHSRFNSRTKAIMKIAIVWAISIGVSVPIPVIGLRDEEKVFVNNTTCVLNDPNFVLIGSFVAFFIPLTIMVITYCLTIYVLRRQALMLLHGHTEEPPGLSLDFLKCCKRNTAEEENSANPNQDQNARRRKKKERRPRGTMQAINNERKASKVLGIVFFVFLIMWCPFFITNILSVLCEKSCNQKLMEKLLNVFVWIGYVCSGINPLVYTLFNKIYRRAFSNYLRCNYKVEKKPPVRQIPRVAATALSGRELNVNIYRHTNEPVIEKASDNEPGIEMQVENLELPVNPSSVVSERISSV

Tests used:
[1] = molecular target: human 5-HT2C receptor (Homo sapiens, UniProt P28335); conditions: reference compounds; calcium mobilization;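 also: Fluo-3-AM fluorescence read on FLIPR every 1 s, agonist added after 10 baseline reads, response taken as peak minus lowest raw fluorescence count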
[2] = molecular target: T1, human 5-hydroxytryptamine-2C (h5-HT2C) receptor (Homo sapiens, UniProt P28335); assay: [125I]DOI binding to membranes of CHO cells expressing the human 5-HT2C receptor; conditions: [125I]DOI radioligand, CHO cell membranes, room temperature 60 min; read-out: 5-HT2C Affinity Ki
T1 construct: expressed in transfected cells; host or cells: CHO (Chinese Hamster Ovary) cells; membranes

How did the EC50 [1] turn out when “1-(2,5-dimethoxy-4-iodophenyl)isopropylamine [DOI, reference compound]” was run?
Its EC50 is 0.5 nM.

How did the Ki [2] turn out when `Cc1cccc(-c2cccc3c2OC(CN)C3)c1C` (racemic) [Example 154, (±)-1-[7-(2,3-dimethylphenyl)-2,3-dihydro-1-benzofuran-2-yl]methanamine] was run?
Its Ki is 6.2 nM.
